In patent US20090186832A1 (priority 2008, published 2009):
Where “and” joins values, the source holds several entries; their conditions need not be identical. Identical values can stand only once. Like-named read-outs stand apart in the source and are kept apart here. Marks after values point to notes of the source that are not given here.

Experiments:
[1] = not given; remark: listed apart in the source
[2] = analyte intact prodrug, oral 0.5 mg buprenorphine free base equivalents/kg, mean of 5 dogs
[3] = plasma buprenorphine, oral, dogs

CO[C@]12CC[C@@]3(C[C@@H]1[C@@](C)(O)C(C)(C)C)[C@H]1Cc4ccc(OC(=O)N[C@@H](C(=O)O)C(C)C)c5c4[C@@]3(CCN1CC1CC1)C2O5 (some centres unmarked)
Distilled water (pH 5.9): % remaining after 2h/20° C. (distilled water pH 5.9, 2 h, 20° C.): 100%
pH 10.0 buffer: % remaining after 2 h/20° C. (pH 10.0 buffer, 2 h, 20° C.): 74%
Simulated gastric fluid (pH 1.1): % remaining after 2 h/37° C. (simulated gastric fluid pH 1.1, 2 h, 37° C.): 100%
Simulated intestinal fluid (pH 6.8): % remaining after 2 h/37° C. (simulated intestinal fluid pH 6.8, 2 h, 37° C.): 98%
circulating plasma prodrug concentrations exceeding those of the parent drug ([1]; after oral prodrug, dogs): 100 fold
Buprenorphine valine carbamate t½ ([1]; analyte intact prodrug, oral 0.5 mg buprenorphine free base equivalents/kg, calculated as ln2/mean k): 4.8^b h
Buprenorphine valine carbamate Tmax ([1]; analyte intact prodrug, oral 0.5 mg buprenorphine free base equivalents/kg, individual dogs 1-5): 1 h (4×) and 2 h
Buprenorphine valine carbamate AUC24 [1, 2]: 2500 ng·h/mL
Buprenorphine valine carbamate AUCt [1, 2]: 2360 ng·h/mL
Buprenorphine valine carbamate Cmax [1, 2]: 293 ng/mL
Buprenorphine valine carbamate Tmax ([1]; analyte intact prodrug, oral 0.5 mg buprenorphine free base equivalents/kg, median value): 1^a h
AUC (mean ngh/mL ± SD) ([1]; plasma buprenorphine, 0.5 mg buprenorphine free base/kg, group1 dogs): 23.2 ± 11.3 ngh/mL
overall mean exposure (AUC) relative to parent drug [1, 3]: seven to nine fold greater
period for which plasma drug concentrations remained above 50% of the Cmax values [1, 3]: 5.0 h
